Tested on: clone M28.10B
Assay: TNF-release assay: Melan-A-specific TIL clone co-cultured with peptide-loaded HLA-B*3501 EBV cells
Assay type: cell-based
Details: EBV cells expressing HLA-B*3501 loaded with 10 μM peptide, 6 hours co-culture

Work on AAGIGILTV [Melan-A peptide 27-35] yielded a TNF of 4 pg/mL.
